Data from PubChem BioAssay AID489006 (Sanford-Burnham Center for Chemical Genomics, 2010).

System: Jurkat NF-kB reporter, luminescence
Experiment: Jurkat NF-kB signaling inhibitors – cell-based, luminescence, selectivity assay for B-cell receptor NF-kB inhibitor project, dose response (AID 489006)

In the case of `CNC(=O)c1cc(Oc2ccc(NC(=O)Nc3ccc(Cl)c(C(F)(F)F)c3)cc2)ccn1`, the IC50 is reported as 13.4 µM.
